For one assay, the target named is rat VMAT2 (rVMAT2) (Rattus norvegicus, UniProt Q01827). Kind of assay: [3H]5-HT uptake inhibition in rat brain synaptic vesicular fraction. Type of assay: biochemical.
In the next assay the target is VMAT2 (Rattus norvegicus, UniProt Q01827). Kind of assay: [3H]5-HT release from rat brain synaptic vesicles via VMAT2. Type of assay: biochemical.

Chains of the proteins cited; added tags and fusions are not shown.
UniProt Q01827, whole entry: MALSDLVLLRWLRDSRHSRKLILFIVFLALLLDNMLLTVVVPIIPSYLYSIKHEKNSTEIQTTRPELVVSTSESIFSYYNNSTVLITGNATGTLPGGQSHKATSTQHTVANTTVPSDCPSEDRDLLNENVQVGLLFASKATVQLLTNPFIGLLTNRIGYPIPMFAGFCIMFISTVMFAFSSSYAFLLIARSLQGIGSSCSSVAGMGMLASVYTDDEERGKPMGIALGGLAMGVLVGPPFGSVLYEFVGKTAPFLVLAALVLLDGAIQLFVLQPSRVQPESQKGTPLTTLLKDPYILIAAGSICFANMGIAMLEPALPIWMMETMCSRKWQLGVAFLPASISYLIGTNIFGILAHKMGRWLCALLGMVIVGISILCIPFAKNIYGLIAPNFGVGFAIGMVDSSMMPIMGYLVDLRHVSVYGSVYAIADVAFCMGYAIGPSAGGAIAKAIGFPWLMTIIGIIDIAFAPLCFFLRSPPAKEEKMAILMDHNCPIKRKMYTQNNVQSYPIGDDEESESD

Structures are written as SMILES.

The compound `COC(=O)[C@H]1[C@H]2C[C@@H]3c4[nH]c5cc(OC)ccc5c4CCN3C[C@H]2C[C@@H](OC(=O)c2cc(OC)c(OC)c(OC)c2)[C@@H]1OC` [reserpine, reference compound] had an IC50 against rat VMAT2 (rVMAT2) of 186 ± 26.8 nM. For the same compound, on VMAT2, the “[3H]5-HT Release EC50 ± SD via VMAT2” value was “inactive”. For `COc1cc2c(cc1OC)C1CC(=O)C(CC(C)C)CN1CC2` (stereo not drawn) [tetrabenazine (TBZ), tetrabenazine, reference compound], the “[3H]5-HT Release EC50 ± SD via VMAT2” value at VMAT2 is “inactive”.

One may read the IC50 as the concentration that inhibits the measured activity by half. A lower IC50 goes with inhibition by little substance.

The values are drawn from article PMC13600255 (Journal of the American Chemical Society, 2025).
